Results from ChEMBL document CHEMBL1145271 (Bioorg Med Chem Lett, 2005).

Protein sequences, listed by entry. Tags and fused reporters are not part of them. Lines headed by an entry give the natural chain unless they say otherwise; changes in a name come on top.
UniProt P41145: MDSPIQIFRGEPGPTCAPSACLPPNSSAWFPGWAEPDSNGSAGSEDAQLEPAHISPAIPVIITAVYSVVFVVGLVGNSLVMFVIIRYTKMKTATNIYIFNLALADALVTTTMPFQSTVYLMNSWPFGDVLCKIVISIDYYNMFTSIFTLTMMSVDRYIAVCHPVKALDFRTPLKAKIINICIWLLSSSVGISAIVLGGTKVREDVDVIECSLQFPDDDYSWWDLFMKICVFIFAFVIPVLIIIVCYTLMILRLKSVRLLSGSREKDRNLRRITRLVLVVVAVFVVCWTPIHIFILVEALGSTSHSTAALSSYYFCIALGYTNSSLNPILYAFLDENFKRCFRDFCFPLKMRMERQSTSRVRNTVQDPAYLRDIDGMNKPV

Biological target: Kappa-type opioid receptor (Homo sapiens, UniProt P41145)
Test: Activation of human Opioid receptor kappa 1 expressed in chinese hamster ovary cells to enhance [35S]GTP-gamma-S, binding compared to U50,488H
Type: functional, cell-based
Outline: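 Agonist efficacy at human κ-opioid receptor, read as enhancement of [35S]GTPγS binding and expressed as % of the maximal response to U50,488H. Mean of at least three independent experiments, each run in duplicate.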

Which Efficacy does the source give for `COC(=O)[C@@H]1C[C@H](OC(C)=O)C(=O)[C@H]2[C@@]1(C)CC[C@H]1C(=O)O[C@H](c3ccoc3)C[C@]21C` here?
Its Efficacy is 99%.
